By UniProt entry, the sequences of proteins in these tests, tags left out. Where a name states a change or a piece, a line headed by the entry shows the natural chain unless it says otherwise.
UniProt Q12809: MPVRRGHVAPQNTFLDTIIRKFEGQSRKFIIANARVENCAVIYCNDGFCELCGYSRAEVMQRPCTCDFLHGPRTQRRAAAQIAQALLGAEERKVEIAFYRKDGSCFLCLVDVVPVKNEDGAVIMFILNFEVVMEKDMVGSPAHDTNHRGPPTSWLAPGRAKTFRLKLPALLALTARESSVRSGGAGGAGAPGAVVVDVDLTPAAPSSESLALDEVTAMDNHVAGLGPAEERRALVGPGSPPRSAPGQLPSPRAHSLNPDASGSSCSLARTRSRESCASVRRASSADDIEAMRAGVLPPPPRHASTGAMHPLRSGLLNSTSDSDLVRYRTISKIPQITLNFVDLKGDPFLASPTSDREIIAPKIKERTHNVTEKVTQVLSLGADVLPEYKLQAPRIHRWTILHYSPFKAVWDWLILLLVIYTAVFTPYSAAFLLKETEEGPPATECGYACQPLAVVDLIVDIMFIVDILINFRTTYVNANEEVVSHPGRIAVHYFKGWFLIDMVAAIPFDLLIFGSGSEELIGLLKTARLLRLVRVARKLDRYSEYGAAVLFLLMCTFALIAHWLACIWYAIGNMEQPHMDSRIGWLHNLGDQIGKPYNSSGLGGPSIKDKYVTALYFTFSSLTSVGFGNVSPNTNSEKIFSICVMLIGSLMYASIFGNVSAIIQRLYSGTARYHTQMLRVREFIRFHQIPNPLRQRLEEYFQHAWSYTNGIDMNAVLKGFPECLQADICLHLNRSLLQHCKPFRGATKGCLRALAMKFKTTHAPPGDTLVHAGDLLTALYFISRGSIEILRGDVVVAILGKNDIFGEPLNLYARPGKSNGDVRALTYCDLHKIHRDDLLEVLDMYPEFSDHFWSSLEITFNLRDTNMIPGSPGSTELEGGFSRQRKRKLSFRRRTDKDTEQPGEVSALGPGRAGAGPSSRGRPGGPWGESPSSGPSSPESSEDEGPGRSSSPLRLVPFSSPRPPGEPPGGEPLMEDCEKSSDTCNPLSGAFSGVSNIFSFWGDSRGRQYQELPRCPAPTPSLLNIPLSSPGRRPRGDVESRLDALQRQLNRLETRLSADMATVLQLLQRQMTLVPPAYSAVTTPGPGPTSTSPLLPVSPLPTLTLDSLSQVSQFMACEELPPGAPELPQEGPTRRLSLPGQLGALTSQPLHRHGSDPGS

According to BindingDB's records for doi:10.1016/j.vascn.2014.07.002 (University of Oxford, 2014):

Target: Potassium voltage-gated channel subfamily H member 2 (Homo sapiens, UniProt Q12809)
Experiment: Inhibition of rapid delayed inward rectifying potassium current (IKr) measured using manual patch clamp assay

Compound: CO[C@H]1C[C@@H]2CC[C@@H](C)[C@@](O)(O2)C(=O)C(=O)N2CCCC[C@H]2C(=O)O[C@H]([C@H](C)C[C@@H]2CC[C@@H](OCCO)[C@H](OC)C2)CC(=O)[C@H](C)/C=C(\C)[C@@H](O)[C@@H](OC)C(=O)[C@H](C)C[C@H](C)/C=C/C=C/C=C/1C [CHEBI:68478]
- IC50: 501 µM
